Source: US20230339891A1, “URACIL DERIVATIVES AS MER-AXL INHIBITORS” (BRISTOL-MYERS SQUIBB COMPANY, priority 2018, published 2023)

Chains of the proteins cited; added tags and fusions are not shown. Residues count along the entry.
UniProt P30530, 473-894 limits assumed: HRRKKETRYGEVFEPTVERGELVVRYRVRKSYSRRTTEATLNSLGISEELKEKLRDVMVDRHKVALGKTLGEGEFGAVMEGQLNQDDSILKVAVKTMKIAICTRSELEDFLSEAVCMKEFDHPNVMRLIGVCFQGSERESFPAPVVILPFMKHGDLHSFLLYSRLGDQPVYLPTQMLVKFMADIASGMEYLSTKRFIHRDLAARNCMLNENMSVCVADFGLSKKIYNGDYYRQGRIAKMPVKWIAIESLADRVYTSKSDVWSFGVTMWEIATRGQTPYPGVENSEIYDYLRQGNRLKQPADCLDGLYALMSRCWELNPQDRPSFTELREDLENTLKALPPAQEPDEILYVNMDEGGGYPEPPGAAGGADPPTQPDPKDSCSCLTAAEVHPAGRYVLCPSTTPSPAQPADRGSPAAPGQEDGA
UniProt Q12866, 578-872 limits assumed: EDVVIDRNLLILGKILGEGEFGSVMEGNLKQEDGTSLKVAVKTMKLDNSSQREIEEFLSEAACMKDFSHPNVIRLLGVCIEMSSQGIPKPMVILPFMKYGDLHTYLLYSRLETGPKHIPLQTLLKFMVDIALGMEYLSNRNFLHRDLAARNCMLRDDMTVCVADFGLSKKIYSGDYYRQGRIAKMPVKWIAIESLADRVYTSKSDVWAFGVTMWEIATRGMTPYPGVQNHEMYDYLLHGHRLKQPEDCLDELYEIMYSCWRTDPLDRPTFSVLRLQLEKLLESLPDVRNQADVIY

Tests used:
HIS-AXL 473-End = HIS-AXL 473-End (Homo sapiens (Human), UniProt P30530); experiment: AXL kinase homogeneous time resolved fluorescence (HTRF) binding assay; conditions: read-out: Axl HTRF IC50; 1 nM kinase, fluorescein-labeled kinase tracer at Kd, 60 minutes at room temperature
Description: (§1) MERTK, AXL, TYRO3 Kinase Homogeneous Time Resolved Fluorescence (HTRF) Assay
(§2) Binding assays contained 1 nM kinase (GST-MERTK 578-872, HIS-AXL 473-End, or GST-TYRO 451-890), 0.2 nM terbium labelled antibody (anti-GST or anti-HIS), fluorescein-labeled kinase tracer at its respective kinase Kd, and test compounds in assay buffer consisting of 20 mM Hepes pH 7.5, 10 mM MgCl2, 0.015% Brij-35, 2 mM DTT, and 50 μg/ml BSA. Assays were performed in black, flat-bottom, 1536-well plates. The reactions were incubated at room temperature for 60 minutes, following which the HTRF signals, ratio of fluorescence intensities at emission wavelengths for fluorescein acceptor (520 nm) and terbium donor (495 nm), the 520/495 ratio, were measured on the Envision Plate reader. Inhibition data were calculated from the 520/495 ratio generated by the no protein control reactions for 100% inhibition and vehicle-only reactions for 0% inhibition, and dose response curves generated to determine the concentration required for inhibiting 50% of the HTRF signal (IC50). Compounds were dissolved at 10 mM in dimethylsulfoxide (DMSO) and evaluated at eleven concentrations.

GST-MERTK 578-872 = GST-MERTK 578-872 (Homo sapiens (Human), UniProt Q12866); experiment: MERTK kinase homogeneous time resolved fluorescence (HTRF) binding assay; conditions: read-out: Mer HTRF IC50; 1 nM kinase, fluorescein-labeled kinase tracer at Kd, 60 minutes at room temperature
Description: as §1, §2

SMILES	IC50 (HIS-AXL 473-End)	IC50 (GST-MERTK 578-872)
CC(C)n1cc(C(=O)Nc2ccc(Oc3ccnc(Nc4ccc(C#N)c(N5CCN(S(C)(=O)=O)CC5)n4)c3)c(F)c2)c(=O)n(Cc2ccc(F)cc2)c1=O	5.2 nM	8.6 nM
CC(C)n1cc(C(=O)Nc2ccc(Oc3ccnc(Nc4ccc(C#N)c(N5CC[C@H](O)C5)n4)c3)c(F)c2)c(=O)n(CCc2ccccc2)c1=O	52 nM	22 nM
CC(C)n1cc(C(=O)Nc2ccc(Oc3ccnc(Nc4ccc(S(=O)(=O)N(C)C)cn4)c3)c(F)c2)c(=O)n(CCC2CC2)c1=O	12 nM	137 nM
CC(C)n1cc(C(=O)Nc2ccc(Oc3ccnc(Nc4ccc(S(=O)(=O)N(C)C)cn4)c3)c(F)c2)c(=O)n(C(C)C)c1=O	140 nM	175 nM
CC(C)n1cc(C(=O)Nc2ccc(Oc3ccnc(Nc4ccc(S(=O)(=O)N(C)C)cn4)c3)c(F)c2)c(=O)n(Cc2ccc(F)cc2)c1=O	4170 nM	794 nM
CC(C)n1cc(C(=O)Nc2ccc(Oc3ccnc(Nc4ccc(S(=O)(=O)N(C)C)c(N5CCC(S(C)(=O)=O)CC5)n4)c3)c(F)c2)c(=O)n(-c2ccc(F)cc2)c1=O	1.9 nM	1.6 nM
COc1ccc(-n2c(=O)c(C(=O)Nc3ccc(Oc4ccnc(Nc5ccc(S(=O)(=O)N(C)C)cn5)c4)c(F)c3)cn(C(C)C)c2=O)cc1	62 nM	119 nM
CC(C)n1cc(C(=O)Nc2ccc(Oc3ccnc(Nc4ccc(S(=O)(=O)N(C)C)cn4)c3)c(F)c2)c(=O)n(CC2CC2)c1=O	–	89 nM
CC(C)n1cc(C(=O)Nc2ccc(Oc3ccnc(Nc4ccc(C(F)(F)F)cn4)c3)c(F)c2)c(=O)n(-c2ccc(F)cc2)c1=O	66 nM	105 nM
COc1ccccc1Cn1c(=O)c(C(=O)Nc2ccc(Oc3ccnc(Nc4ccc(S(=O)(=O)N(C)C)cn4)c3)c(F)c2)cn(C(C)C)c1=O	995 nM	114 nM
CC(C)n1cc(C(=O)Nc2ccc(Oc3ccnc(Nc4ccc(C#N)c(N5CCN(S(C)(=O)=O)CC5)n4)c3)c(F)c2)c(=O)n(Cc2ccccc2)c1=O	25 nM	21 nM
CC(C)n1cc(C(=O)Nc2ccc(Oc3ccnc(Nc4ccc(C#N)c(N5CCC(S(C)(=O)=O)CC5)n4)c3)c(F)c2)c(=O)n(Cc2ccccc2)c1=O	–	2.9 nM
CC(C)n1cc(C(=O)Nc2ccc(Oc3ccnc(Nc4ccc(S(=O)(=O)N(C)C)cn4)c3)c(F)c2)c(=O)n(-c2cccc(Cl)c2)c1=O	87 nM	71 nM
CC(C)Cn1c(=O)c(C(=O)Nc2ccc(Oc3ccnc(Nc4ccc(S(=O)(=O)N(C)C)cn4)c3)c(F)c2)cn(C(C)C)c1=O	62 nM	216 nM
CC(C)n1cc(C(=O)Nc2ccc(Oc3ccnc(Nc4ccc(S(=O)(=O)N5CC(C)(O)C5)cn4)c3)c(F)c2)c(=O)n(-c2ccc(F)cc2)c1=O	3.4 nM	13 nM
